In EP4840861A1, “PREPARATION AND USE OF 7-FLUOROALKYL SUBSTITUTED CAMPTOTHECIN DERIVATIVE” (dated 2026):

Legend:
[1] = test system: Human esophageal cancer cells OE33; assay: Inhibitory activity against tumor cell growth (CCK-8, 72 h), OE33; details: read-out: IC50 (nM) values of compounds for inhibiting tumor cell growth, OE33, 72 h incubation
Experimental: (§1) Human esophageal cancer cells OE33, human breast cancer cells MDA-MB-231, human gastric cancer cells NCI-N87, human lung cancer cells NCI-H1975, and human breast cancer cells SK-BR-3 were cultured in RPMI1640 (Cellmax) containing 10% fetal bovine serum (Cellmax). Tumor cells in the exponential growth phase were diluted with the medium to 1 × 10^5 cells/mL to afford a cell suspension. The cell suspension was added to a 96-well cell culture plate at 100 µL/well, and cultured in a 37°C and 5% CO2 incubator overnight. On the next day, a test compound was diluted with the medium to concentrations of 10,000 nM, 2,000 nM, 400 nM, 80 nM, 16 nM, 3.2 nM, 0.64 nM, and 0.13 nM. Compound dilutions were added to the 96-well cell culture plate at 2 µL/well, with three replicate wells for each concentration. For negative control and blank control groups without the test compound, a diluent was added at 2 µL/well. After sample addition, the 96-well cell culture plate was placed back into a 37°C and 5% CO2 incubator for further incubation of cells for 72 h. After the incubation was completed, the cell culture plate was taken out, the medium in each well was discarded using a pipette, and then 100 µL of medium containing 10% CCK-8 was added to each well for further incubation of cells at 37°C for 3 h. After the incubation was completed, the culture plate was taken out and placed in a microplate reader while being protected from light. The absorbance was measured with a reference wavelength of 630 nm and a detection wavelength of 450 nm. Based on absorbance values, IC50 values were calculated using four-parameter logistic regression in GraphPad (Table 1). Dxd was used as a positive control drug, with a structural formula [drawing 59]

[2] = test system: human breast cancer cells MDA-MB-231; assay: Inhibitory activity against tumor cell growth (CCK-8, 72 h), MDA-MB-231; details: read-out: IC50 (nM) values of compounds for inhibiting tumor cell growth, MDA-MB-231, MDA-MB-231 cells, 72 h incubation
Experimental: as §1

[3] = test system: human gastric cancer cells NCI-N87; assay: Inhibitory activity against tumor cell growth (CCK-8, 72 h), NCI-N87; details: read-out: IC50 (nM) values of compounds for inhibiting tumor cell growth, NCI-N87, 72 h incubation
Experimental: as §1

[4] = test system: human lung cancer cells NCI-H1975; assay: Inhibitory activity against tumor cell growth (CCK-8, 72 h), NCI-H1975; details: read-out: IC50 (nM) values of compounds for inhibiting tumor cell growth, NCI-H1975, 72 h incubation
Experimental: as §1

[5] = test system: human breast cancer cells SK-BR-3; assay: Inhibitory activity against tumor cell growth (CCK-8, 72 h), SK-BR-3; details: read-out: IC50 (nM) values of compounds for inhibiting tumor cell growth, SK-Br-3, SK-Br-3 cells, 72 h incubation
Experimental: as §1

| Compound | IC50 [1] | IC50 [2] | IC50 [3] | IC50 [4] | IC50 [5] |
| --- | --- | --- | --- | --- | --- |
| CC[C@@]1(O)C(=O)OCc2c1cc1n(c2=O)Cc2c-1nc1cc(F)c(C)cc1c2CCNC(C)(C)C(F)(F)F | < 10 nM | 100 to 500 nM | < 10 nM | 10 to 100 nM | < 10 nM |
| CC[C@@]1(O)C(=O)OCc2c1cc1n(c2=O)Cc2c-1nc1cc3c(cc1c2CNCC(F)(F)F)OCO3 | < 10 nM | 10 to 100 nM | < 10 nM | < 10 nM | < 10 nM |
| CC[C@@]1(O)C(=O)OCc2c1cc1n(c2=O)Cc2c-1nc1ccccc1c2CN[C@H](C)C(F)(F)F | < 10 nM | 100 to 500 nM | < 10 nM | 10 to 100 nM | < 10 nM |
| CC[C@@]1(O)C(=O)OCc2c1cc1n(c2=O)Cc2c-1nc1cc(F)c(C)cc1c2CNCC(F)(F)F | < 10 nM | 100 to 500 nM | < 10 nM | < 10 nM | < 10 nM |
| CC[C@@]1(O)C(=O)OCc2c1cc1n(c2=O)Cc2c-1nc1cc(F)c(F)cc1c2CCN[C@@H](C)C(F)(F)F | < 10 nM | 10 to 100 nM | < 10 nM | 10 to 100 nM | < 10 nM |
| CC[C@@]1(O)C(=O)OCc2c1cc1n(c2=O)Cc2c-1nc1ccccc1c2CCNCC(F)(F)F | < 10 nM | 100 to 500 nM | < 10 nM | 10 to 100 nM | < 10 nM |
| CC[C@@]1(O)C(=O)OCc2c1cc1n(c2=O)Cc2c-1nc1cc3c(cc1c2CCN[C@@H](C)C(F)(F)F)OCO3 | < 10 nM | 100 to 500 nM | < 10 nM | < 10 nM | < 10 nM |
| CC[C@@]1(O)C(=O)OCc2c1cc1n(c2=O)Cc2c-1nc1cc(F)c(F)cc1c2CCN[C@H](C)C(F)(F)F | < 10 nM | 10 to 100 nM | < 10 nM | < 10 nM | < 10 nM |
| CC[C@@]1(O)C(=O)OCc2c1cc1n(c2=O)Cc2c-1nc1cc(F)c(F)cc1c2CN[C@H](C)C(F)(F)F | < 10 nM | 10 to 100 nM | < 10 nM | < 10 nM | < 10 nM |
| CC[C@@]1(O)C(=O)OCc2c1cc1n(c2=O)Cc2c-1nc1cc(F)c(C)cc1c2CCN[C@@H](C)C(F)(F)F | < 10 nM | 10 to 100 nM | < 10 nM | < 10 nM | < 10 nM |
| CC[C@@]1(O)C(=O)OCc2c1cc1n(c2=O)Cc2c-1nc1cc(F)c(F)cc1c2CCNCC(F)(F)F | < 10 nM | 10 to 100 nM | < 10 nM | 10 to 100 nM | < 10 nM |
| CC[C@@]1(O)C(=O)OCc2c1cc1n(c2=O)Cc2c-1nc1ccccc1c2CNC(C)(C)C(F)(F)F | < 10 nM | 100 to 500 nM | < 10 nM | 10 to 100 nM | < 10 nM |
| CC[C@@]1(O)C(=O)OCc2c1cc1n(c2=O)Cc2c-1nc1cc(F)c(C)cc1c2CCN[C@H](C)C(F)(F)F | < 10 nM | 10 to 100 nM | 10 to 100 nM | 10 to 100 nM | < 10 nM |
| CC[C@@]1(O)C(=O)OCc2c1cc1n(c2=O)Cc2c-1nc1cc3c(cc1c2CN[C@@H](C)C(F)(F)F)OCO3 | < 10 nM | 10 to 100 nM | < 10 nM | < 10 nM | < 10 nM |
| CC[C@@]1(O)C(=O)OCc2c1cc1n(c2=O)Cc2c-1nc1ccccc1c2CCNC(C)(C)C(F)(F)F | < 10 nM | 100 to 500 nM | < 10 nM | 10 to 100 nM | < 10 nM |
| CC[C@@]1(O)C(=O)OCc2c1cc1n(c2=O)Cc2c-1nc1cc(F)c(F)cc1c2CNC(C)(C)C(F)(F)F | < 10 nM | 10 to 100 nM | < 10 nM | < 10 nM | < 10 nM |
| CC[C@@]1(O)C(=O)OCc2c1cc1n(c2=O)Cc2c-1nc1cc3c(cc1c2CN[C@H](C)C(F)(F)F)OCO3 | < 10 nM | 10 to 100 nM | < 10 nM | 10 to 100 nM | < 10 nM |
| CC[C@@]1(O)C(=O)OCc2c1cc1n(c2=O)Cc2c-1nc1ccccc1c2CN[C@@H](C)C(F)(F)F | < 10 nM | 100 to 500 nM | < 10 nM | 10 to 100 nM | < 10 nM |
| CC[C@@]1(O)C(=O)OCc2c1cc1n(c2=O)Cc2c-1nc1cc(F)c(F)cc1c2CNCC(F)(F)F | < 10 nM | 10 to 100 nM | < 10 nM | < 10 nM | < 10 nM |
| CC[C@@]1(O)C(=O)OCc2c1cc1n(c2=O)Cc2c-1nc1cc(F)c(C)cc1c2CN[C@H](C)C(F)(F)F | < 10 nM | 10 to 100 nM | < 10 nM | < 10 nM | < 10 nM |
| CC[C@@]1(O)C(=O)OCc2c1cc1n(c2=O)Cc2c-1nc1cc(F)c(F)cc1c2CN[C@@H](C)C(F)(F)F | < 10 nM | 10 to 100 nM | < 10 nM | < 10 nM | < 10 nM |
| CC[C@@]1(O)C(=O)OCc2c1cc1n(c2=O)Cc2c-1nc1ccccc1c2CCN[C@@H](C)C(F)(F)F | < 10 nM | 10 to 100 nM | < 10 nM | 10 to 100 nM | < 10 nM |
| CC[C@@]1(O)C(=O)OCc2c1cc1n(c2=O)Cc2c-1nc1cc(F)c(C)c3c1c2[C@@H](NC(=O)CO)CC3 | < 10 nM | 100 to 500 nM | < 10 nM | 10 to 100 nM | < 10 nM |
| CC[C@@]1(O)C(=O)OCc2c1cc1n(c2=O)Cc2c-1nc1cc(F)c(C)cc1c2CN[C@@H](C)C(F)(F)F | < 10 nM | 10 to 100 nM | < 10 nM | < 10 nM | < 10 nM |
| CC[C@@]1(O)C(=O)OCc2c1cc1n(c2=O)Cc2c-1nc1cc3c(cc1c2CNC(C)(C)C(F)(F)F)OCO3 | < 10 nM | 10 to 100 nM | < 10 nM | < 10 nM | < 10 nM |
| CC[C@@]1(O)C(=O)OCc2c1cc1n(c2=O)Cc2c-1nc1cc(F)c(C)cc1c2CNC(C)(C)C(F)(F)F | < 10 nM | 10 to 100 nM | < 10 nM | < 10 nM | < 10 nM |
| CC[C@@]1(O)C(=O)OCc2c1cc1n(c2=O)Cc2c-1nc1cc(F)c(C)cc1c2CCNCC(F)(F)F | < 10 nM | 100 to 500 nM | < 10 nM | < 10 nM | < 10 nM |
| CC[C@@]1(O)C(=O)OCc2c1cc1n(c2=O)Cc2c-1nc1cc3c(cc1c2CCN[C@H](C)C(F)(F)F)OCO3 | < 10 nM | < 10 nM | < 10 nM | < 10 nM | < 10 nM |
| CC[C@@]1(O)C(=O)OCc2c1cc1n(c2=O)Cc2c-1nc1ccccc1c2CNCC(F)(F)F | < 10 nM | 100 to 500 nM | < 10 nM | 10 to 100 nM |  |
